Measured values published in US7276347B2 (priority 2004, dated 2007).
Values after ≈ are worked out from the molar mass of the structure shown.

Tests used:
[1] = tested on: antibodies to HCY Oxime-BTG (example 4a); settings: competitive ELISA; plate coated with HCY Oxime-BSA conjugate at 1.25 μg/mL; analyte concentration inhibiting 50% of absorbance
[2] = tested on: monoclonal antibody to HCY Oxime-KLH (example 4b); settings: competitive ELISA; plate coated with HCY Oxime-BSA conjugate at 5 ug/mL; analyte concentration inhibiting 50% of absorbance

For CON=CCCOP(N)(=O)N(CCCl)CCCl (centres unmarked), the “IC 50” value [1] was 0.03 µg/mL (≈ 0.098 µM) and the “IC 50” value [2] was 0.1 µg/mL (≈ 0.327 µM).
